Laboratory results reported in patent US8173695B2, “Kappa selective opioid receptor antagonist” (Eli Lilly and Company, priority 2008, dated 2012).

Amino acid sequences for entries named in this document (tags omitted). A change or cut given only in a name is not applied to a line headed by its entry.
UniProt P41145: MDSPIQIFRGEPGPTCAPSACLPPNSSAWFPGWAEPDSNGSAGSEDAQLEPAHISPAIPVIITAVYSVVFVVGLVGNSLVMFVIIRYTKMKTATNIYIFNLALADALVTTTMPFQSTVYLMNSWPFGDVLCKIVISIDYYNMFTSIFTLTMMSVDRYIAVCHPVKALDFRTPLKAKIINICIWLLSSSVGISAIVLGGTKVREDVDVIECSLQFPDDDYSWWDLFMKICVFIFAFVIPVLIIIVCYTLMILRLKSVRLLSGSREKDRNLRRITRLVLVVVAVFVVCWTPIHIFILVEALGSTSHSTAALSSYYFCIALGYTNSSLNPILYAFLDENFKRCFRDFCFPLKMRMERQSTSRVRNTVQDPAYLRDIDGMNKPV
UniProt P41143, whole entry: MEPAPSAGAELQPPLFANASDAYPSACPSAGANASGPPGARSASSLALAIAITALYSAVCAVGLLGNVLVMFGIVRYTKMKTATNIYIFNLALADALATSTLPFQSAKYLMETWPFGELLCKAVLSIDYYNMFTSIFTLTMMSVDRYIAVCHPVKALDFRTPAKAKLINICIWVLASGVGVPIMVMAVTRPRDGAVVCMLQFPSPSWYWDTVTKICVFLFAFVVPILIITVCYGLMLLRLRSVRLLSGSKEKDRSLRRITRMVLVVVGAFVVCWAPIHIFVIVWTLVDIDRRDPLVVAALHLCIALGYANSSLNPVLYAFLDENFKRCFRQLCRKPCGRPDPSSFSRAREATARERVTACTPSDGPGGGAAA
UniProt P35372, whole entry: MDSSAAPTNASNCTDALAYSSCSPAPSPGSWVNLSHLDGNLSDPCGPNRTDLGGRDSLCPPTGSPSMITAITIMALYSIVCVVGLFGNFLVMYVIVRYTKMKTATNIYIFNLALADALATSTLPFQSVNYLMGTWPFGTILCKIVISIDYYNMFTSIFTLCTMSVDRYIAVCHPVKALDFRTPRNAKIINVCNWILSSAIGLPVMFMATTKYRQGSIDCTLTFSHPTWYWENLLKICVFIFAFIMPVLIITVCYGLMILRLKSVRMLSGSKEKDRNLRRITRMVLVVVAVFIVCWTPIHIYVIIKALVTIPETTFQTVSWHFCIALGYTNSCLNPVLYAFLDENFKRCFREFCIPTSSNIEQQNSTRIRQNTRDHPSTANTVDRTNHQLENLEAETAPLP

Tests used:
[1] = biological target: Kappa opioid receptor (Homo sapiens, UniProt P41145); type: binding; settings: geometric mean (SEM, n)
[2] = biological target: delta-opioid receptor (DOR), hDelta (Homo sapiens, UniProt P41143); assay: GTP-γ-S binding assay, opioid receptor in vitro antagonism (vs DPDPE 30 nM); type: biochemical; settings: geometric mean (SEM, n)
[3] = biological target: mu-opioid receptor (MOR), hMu (Homo sapiens, UniProt P35372); assay: GTP-γ-S binding assay, opioid receptor in vitro antagonism (vs DAMGO 1 micromolar); type: biochemical; settings: geometric mean (SEM, n)
[4] = biological target: Mu opioid receptor (Homo sapiens, UniProt P35372); assay: biochemical
[5] = biological target: kappa-opioid receptor (KOR), hKappa (Homo sapiens, UniProt P41145); assay: GTP-γ-S binding assay, opioid receptor in vitro antagonism (vs U69593 300 nM); type: biochemical; settings: geometric mean (SEM, n)
[6] = biological target: Delta opioid receptor (Homo sapiens, UniProt P41143); assay: biochemical

`Cc1cc(C)cc([C@@H]2CCCN2Cc2ccc(Oc3ccc(C(N)=O)cc3F)cc2)c1` (single isomer, unassigned) [Example 1B, 4-{4-[2-(3,5-Dimethyl-phenyl)-pyrrolidin-1-ylmethyl]-phenoxy}-3-fluoro-benzamide] showed a Ki [1] of 13.9 nM, a Kb [2] of 220 nM and a Kb [3] of 69.6 nM.
Compound `Cc1cc(C)cc([C@@H]2CCCN2Cc2ccc(Oc3ccc(C(N)=O)cc3F)cc2)c1` (single isomer, unassigned) [Example 1A] has a Ki [4] of 16.4 nM, a Kb [5] of 2.12 nM and a Ki [1] of 0.597 nM. The Kb [2] was 264 nM, the Kb [3] was 40.1 nM and the Ki [6] was 122 nM.
With `Cc1cc(C)cc(C2CCCN2Cc2ccc(Oc3ccc(C(N)=O)cc3F)cc2)c1` (racemic) [Example 1, 4-{4-[2-(3,5-Dimethyl-phenyl)-pyrrolidin-1-ylmethyl]-phenoxy}-3-fluoro-benzamide] the Ki [4] was 12 nM, the Kb [5] was 5.43 nM and the Ki [1] was 0.225 nM. The Kb [2] was 293 nM, the Kb [3] was 56.7 nM and the Ki [6] was 170 nM.
